Data: patent US20140127159A1, “HCV Combination Therapy” (Stella ApS, priority 2011, published 2014)
Where “and” joins values, the source holds several entries; their conditions need not be identical. Equal entries are not always repeated.

Experiments:
[1] = test system: HCV genotype Ib replicon in Huh-luc/neoET cells; assay type: cell-based

“Interferon alpha-2b: Interferon-a2b purchased from R&D Systems” was tested, and the “Cytotoxicity, Synergy vol” value (Huh-luc/neo-ET) was 0/0; 0/−8.9 μM^2%, the “Efficacy, Synergy vol” value [1] was 10.75/−38.2; 10.33/0 μM^2% and the “Efficacy, Antagonism vol” value ([1]; in combination with miravirsen (SPC3649), 95% confidence interval, median (≧3 experiments) or individual values) was −38.2 μM^2% and 0 μM^2%.
